Species on record: Homo sapiens
Assay: Selectivity ratio of Ki for human mu opioid receptor to Ki for human kappa opioid receptor

Compound `Oc1ccc2c(c1)[C@@]13CCCC[C@H]1[C@@H](C2)N(CC1CCC1)CC3` has a Ratio Ki of 3.
